This experiment is described as follows: Inhibition of human dUTPase-mediated cell proliferation in HeLa S3 cells assessed as compound concentration required to reduce 50% of 1 uM of FdUrd T/C after 24 hrs by crystal violet staining.

As to `CC(C)(CC/C=C/Cn1ccc(=O)[nH]c1=O)NS(=O)(=O)c1cccc(OCC2CC2)c1`, the EC50 (as a rule, the concentration needed to bring the measured effect to its halfway point) was found to be 71 nM.

Source of the values: BindingDB's records for doi:10.1021/jm300416h (Taiho Pharmaceutical, 2012).
